In PubChem BioAssay AID485358 (National Center for Advancing Translational Sciences (NCATS), 2010) one finds activation data, which are given here for 80 molecules.

By UniProt entry, the sequences of proteins in these tests, tags left out.
UniProt P14416, whole entry: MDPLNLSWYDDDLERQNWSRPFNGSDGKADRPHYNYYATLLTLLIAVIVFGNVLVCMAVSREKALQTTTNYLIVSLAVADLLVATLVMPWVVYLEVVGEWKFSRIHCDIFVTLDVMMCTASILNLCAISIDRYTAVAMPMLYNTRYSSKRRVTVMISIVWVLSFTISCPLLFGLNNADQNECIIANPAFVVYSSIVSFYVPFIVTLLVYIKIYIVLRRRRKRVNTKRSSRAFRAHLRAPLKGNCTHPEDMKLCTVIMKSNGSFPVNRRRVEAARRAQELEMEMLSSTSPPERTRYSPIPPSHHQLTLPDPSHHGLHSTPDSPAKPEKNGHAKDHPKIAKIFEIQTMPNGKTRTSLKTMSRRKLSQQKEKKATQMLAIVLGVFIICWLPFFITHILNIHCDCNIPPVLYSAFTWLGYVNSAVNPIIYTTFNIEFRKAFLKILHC

This is a selection; strong and weak results do not stand in their true shares. Some salts or complexes appear as unconnected parts, following the source record. Activity calls are given as the source filed them.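 The calls were made as follows: active = activation over 3 SD above normal in the single-dose calcium agonist read (cut at about 30% in these data); inactive = the rest.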

This assay has as its target D(2) dopamine receptor (Homo sapiens) (UniProt P14416). Description: HTS Assay for Allosteric Agonists of the Human D2 Dopamine Receptor: Primary Screen for Agonists. Also: 0% is about no effect. The note with it: HEK293 T-REx D2 cells, calcium flux agonist mode; at 2 µM; stronger effect = higher value. The source says:
NIH Chemical Genomics Center [NCGC] NIH Molecular Libraries Probe Centers Network [MLPCN] MLPCN Grant: NS064831-01 Assay Submitter (PI): David Sibley Dopamine receptors (DARs) are involved in the etiology and/or therapy of a number of neuropsychiatric and endocrine disorders. For instance, all receptor-based antiparkinsonian drugs work via stimulating the D2 DAR subtype whereas all FDA-approved antipsychotic agents are antagonists of this receptor. […] There are three different types of allosteric modulators that we are seeking, two of which will stimulate or augment receptor signaling, allosteric agonists and potentiators, while the third, allosteric antagonists, will attenuate receptor signaling. The present primary screening assay measures compound agonism by tracking calcium flux in a […], inducible Hek293 Trex D2 cell line.
Freshly passaged cells are plated in 1536 well black, clear bottom plates at a density of 4000 cells/well in 3 ul of complete media containing 1x tetracycline inducer. After an overnight incubation at […] in 5% CO2, cells are loaded with 2 ul of the no wash Calcium Assay Kit (ABD Bioquest) and incubated at room temperature for 30 to 90 minutes. Agonist read: A 10 cycle (1 second/cycle) baseline measurement is taken and then the FDSS online 1536 pintool delivers 23 nl of compound library (as well as dopamine controls) to the plate. The plate is measured for kinetically at 1 cycle/sec for 180 seconds and is considered to be the agonist portion of the assay (eg, compounds which activate a positive calcium response during this portion are flagged as potential agonists). Following the 180 second read, 1 ul of either an EC20 (positive modulation assay) or EC80 (negative modulation assay) is delivered by an onboard pipette head. Measurements are taken kinetically for an additional 180 seconds.
`CN1CCC(Nc2ccc(Cl)cc2)CC1`: the activation is inactive: 0.616%.

Regarding `CCCOc1ccc(C)cc1CN(CCCl)CCCl`, the activation was inactive: 0.0141%.

Consider `COc1cc(OC)cc(C(=O)NCC2(N3CCOCC3)CCCCC2)c1`, for which the activation is inactive: -0.227%.

`COc1cc(C(=O)NCC2(N3CCOCC3)CCCCC2)cc(OC)c1OC`: the activation is inactive: 1%.

`COc1cccc(C(=O)N(c2cc(C)cc(C)c2)C2CCN(C(=O)OC(C)(C)C)CC2)c1`: the activation was inactive: -3.78%.

On to `CCC(CO)(C(=O)OC1CN2CCC1CC2)c1ccccc1` (stereo not given), for which the activation was inactive: -0.018%.

`O=C(O)C1(Nc2ccccc2)CCN(Cc2ccccc2)CC1`: the activation was inactive: 1.23%.

Consider `CC(C)(C)OC(=O)N1CCC(Nc2ccccc2)CC1`, for which the activation is inactive: -0.629%.

With `CCCOc1ccc(C(=O)NCC2(N(C)C)CCCCC2)cc1`, the activation was inactive: -0.571%.

Regarding `CN1CCC(Nc2ccc(F)c(Cl)c2)CC1`, the activation was inactive: -0.34%.

`CCOc1ncccc1C(=O)NCC1(N2CCOCC2)CCCCC1`: the activation is inactive: -0.407%.

Take `Cc1ccccc1C(=O)NCC1(N(C)C)CCCCC1`: the activation is inactive: 1.16%.

Turning to `CC(C)(C)c1ccc(C(=O)NCC2(N3CCOCC3)CCCCC2)cc1`, the activation was inactive: -1.35%.

`O=C(NCC1(N2CCCCC2)CCCCC1)c1ccco1`: the activation was inactive: 0.284%.

In the case of `CCN1CCC(Nc2cccc(F)c2)CC1`, the activation was inactive: 0.482%.

As to `Fc1ccccc1NC1CCN(Cc2ccccc2)CC1`, the activation is inactive: -0.56%.

As for `Cc1ccc(C(=O)NCC2(N3CCCCC3)CCCCC2)o1`, the activation is inactive: 1.89%.

Turning to `CN(C)C1(CNC(=O)c2ccc(C(C)(C)C)cc2)CCCCC1`, the activation was inactive: 0.54%.

For `COc1cc(OC)cc(C(=O)NCC2(N3CCCCC3)CCCCC2)c1`, the activation is inactive: -0.841%.

`CN(C)C1(CNC(=O)c2cccc(C#N)c2)CCCCC1`: the activation was inactive: -2.02%.

Take `O=C(NCC1(N2CCOCC2)CCCCC1)c1ccccc1`: the activation is inactive: 2.05%.

In the case of `c1ccc(CN2CCC(Nc3ccccc3)CC2)cc1`, the activation was inactive: 0.497%.

In the case of `CCOC(=O)C(CC)C1=NC(C)(C)Cc2ccccc21.O=[N+]([O-])c1cc([N+](=O)[O-])c(O)c([N+](=O)[O-])c1` (stereo not given), the activation is inactive: 0.0249%.

As to `N#Cc1ccc(C(=O)NCC2(N3CCCCC3)CCCCC2)cc1`, the activation was inactive: 0.267%.

In the case of `O=C(NCC1(N2CCOCC2)CCCCC1)c1ccccc1[N+](=O)[O-]`, the activation was inactive: 0.865%.

On to `O=C(NCC1(N2CCOCC2)CCCCC1)c1ccc([N+](=O)[O-])cc1`, for which the activation was inactive: 0.46%.

As to `O=C(O)c1cccc(Nc2c([N+](=O)[O-])cc([N+](=O)[O-])cc2[N+](=O)[O-])c1`, the activation is inactive: -0.569%.

Regarding `O=C(OC1CN2CCC1CC2)C1c2ccccc2C=Cc2ccccc21` (stereo not given), the activation is inactive: 2.14%.

For the molecule `CCOC(=O)N1CCC(Nc2ccc(C)cc2)CC1`, the activation was inactive: 1.18%.

For the molecule `N/C(=N\O)c1c(N)no[n+]1[O-]`, the activation was inactive: -0.683%.

In the case of `COc1ccc(C(=O)NCC2(N3CCOCC3)CCCCC2)cc1OC`, the activation is inactive: 0.256%.

Regarding `O=C(NCC1(N2CCOCC2)CCCCC1)c1cc(Br)ccc1Cl`, the activation was inactive: -0.158%.

On to `CCCOc1ccc(C(=O)NCC2(N(C)C)CCCCC2)cc1OC`, for which the activation is inactive: -3.36%.

With `O=C(NCC1(N2CCOCC2)CCCCC1)c1ccccc1Br`, the activation was inactive: -0.216%.

`CCCCOc1ccccc1C(=O)NCC1(N2CCOCC2)CCCCC1`: the activation was inactive: -1.05%.

Take `O=C(OC1CN2CCC1CC2)c1ccc([N+](=O)[O-])cc1` (stereo not given): the activation is inactive: -2.52%.

As for `COc1ccc2c(c1O)-c1c(O)c(OC)cc3c1[C@H](C2)[N+](C)(C)CC3.O=[N+]([O-])c1cc([N+](=O)[O-])c([O-])c([N+](=O)[O-])c1[O-]`, the activation was inactive: 0.418%.

Turning to `O=C(NCC1(N2CCCCC2)CCCCC1)c1cncc(Br)c1`, the activation is inactive: 0.551%.

Turning to `COc1cc(OC)c(C(=O)NCC2(N(C)C)CCCCC2)cc1OC`, the activation is inactive: 1.43%.

As to `CC(C)c1ccc(NC2CCN(C(=O)OC(C)(C)C)CC2)cc1`, the activation is inactive: -2.87%.

Regarding `O=[N+]([O-])c1cc([N+](=O)[O-])c(OC2CCCCC2O)c([N+](=O)[O-])c1` (stereo not given), the activation was inactive: 0.0685%.

`CN(C)c1cccc(C(=O)NCC2(N3CCCCC3)CCCCC2)c1`: the activation was inactive: -0.381%.

For the molecule `COc1ccc(CN(CCCl)CCCl)cc1Cl`, the activation was inactive: -0.213%.

On to `COc1cc(C(=O)NCC2(N3CCCCC3)CCCCC2)ccc1OC(F)F`, for which the activation is inactive: 0.598%.

As to `O=C(NCC1(N2CCOCC2)CCCCC1)c1cc(=O)[nH]c2ccccc12`, the activation was inactive: 0.456%.

For the molecule `CN1CCN(CCOC(=O)C(O)(c2ccccc2)c2ccccc2)CC1`, the activation is inactive: 0.421%.

For the molecule `CC(C)c1ccc(C(=O)NCC2(N3CCOCC3)CCCCC2)cc1`, the activation was inactive: -3.35%.

Regarding `COc1ccc(NC2CCN(C(=O)OC(C)(C)C)CC2)cc1`, the activation is inactive: 1.42%.

As to `O=[N+]([O-])c1cc([N+](=O)[O-])c(NCC2CCS(=O)(=O)C2)c([N+](=O)[O-])c1` (stereo not given), the activation was inactive: -2.17%.

For the molecule `CCCOc1cccc(C(=O)NCC2(N3CCOCC3)CCCCC2)c1`, the activation was inactive: -2%.

Turning to `O=C(NCC1(N2CCCCC2)CCCCC1)c1cccc(C(F)(F)F)c1`, the activation was inactive: -0.69%.

In the case of `N#CC1(Nc2ccccc2)CCN(CCc2ccccc2)CC1`, the activation is inactive: 0.423%.

`CCN1CCC(Nc2ccc(Cl)cc2)CC1`: the activation is inactive: 15.9%.

In the case of `O=C(NCC1(N2CCCCC2)CCCCC1)c1cccc([N+](=O)[O-])c1`, the activation was inactive: -0.543%.

In the case of `CCOc1ccc(C(=O)NCC2(N3CCOCC3)CCCCC2)cc1`, the activation is inactive: 1.81%.

Regarding `CSc1ccc(C(=O)NCC2(N3CCOCC3)CCCCC2)cc1`, the activation was inactive: 0.672%.

`O=C(NCC1(N2CCCCC2)CCCCC1)c1ccc(OC(F)F)cc1`: the activation was inactive: 0.354%.

Turning to `Cc1ccc(OCC(C)C)c(CN(CCCl)CCCl)c1`, the activation was inactive: 1.32%.

On to `COc1cc(C(=O)NCC2(N(C)C)CCCCC2)ccc1OC(F)F`, for which the activation was inactive: 0.233%.

For `CCOC(=O)N1CCC(Nc2cccc(C)c2)CC1`, the activation was inactive: -1.21%.

Take `COc1ccccc1C(=O)NCC1(N2CCOCC2)CCCCC1`: the activation is inactive: 0.513%.

`COc1ccc(NC2CCN(CCc3ccccc3)CC2)c(OC)c1`: the activation was inactive: 1.33%.

Consider `CCOC(=O)N1CCC(Nc2ccc(F)cc2)CC1`, for which the activation is inactive: -1.27%.

`O=C(NCC1(N2CCCCC2)CCCCC1)c1ccc(F)cc1`: the activation was inactive: 7.04%.

`O=C(NCC1(N2CCOCC2)CCCCC1)c1ccc(Cl)cc1`: the activation was inactive: -1.92%.

On to `CCOc1ccc(C)cc1CN(CCCl)CCCl`, for which the activation was inactive: 0.45%.

On to `COc1ccc(Cl)cc1C(=O)NCC1(N2CCOCC2)CCCCC1`, for which the activation is inactive: -0.0712%.

Regarding `O=C(OC1CN2CCC1CC2)C1c2ccccc2Oc2ccccc21` (stereo not given), the activation is inactive: 1%.

As to `O=C(NCC1(N2CCCCC2)CCCCC1)c1ccc(Cl)s1`, the activation is inactive: 0.12%.

For the molecule `N#CC1(Nc2ccccc2)CCN(Cc2ccccc2)CC1`, the activation is inactive: 0.376%.

On to `CCOC(=O)N1CCC(Nc2ccc(OC)cc2)CC1`, for which the activation was inactive: -0.473%.

Take `Cc1cc(C)cc(N(C(=O)c2ccccc2)C2CCN(C(=O)OC(C)(C)C)CC2)c1`: the activation was inactive: -3.88%.

In the case of `O=C(NCC1(N2CCCCC2)CCCCC1)c1ccc(Cl)nc1`, the activation is inactive: -0.0807%.

For `O=C(NCC1(N2CCOCC2)CCCCC1)c1cc2ccccc2o1`, the activation is inactive: 0.2%.

Take `CSc1ccccc1C(=O)NCC1(N2CCCCC2)CCCCC1`: the activation is inactive: -2.66%.

Turning to `CC(C)(C)OC(=O)N1CCC(N(C(=O)c2ccccc2)c2ccc(F)cc2)CC1`, the activation was inactive: -0.0529%.

Turning to `COc1ccc(C(=O)NCC2(N3CCCCC3)CCCCC2)c(OC)c1OC`, the activation is inactive: -1.15%.

For `COc1ccc(C(=O)NCC2(N3CCCCC3)CCCCC2)cc1`, the activation was inactive: -1.65%.

As for `O=C(NCC1(N2CCCCC2)CCCCC1)c1cccs1`, the activation was inactive: 0.112%.

As for `O=C(NCC1(N2CCCCC2)CCCCC1)c1ccc(=O)[nH]c1`, the activation is inactive: 2.45%.
